# Laboratory results: ChEMBL document CHEMBL1141860, “Synthesis and monoamine transporter affinity of 3-aryl substituted trop-2-enes” (Bioorg Med Chem Lett, 2005)
# Amino acid sequences for entries named in this document (tags omitted).
# UniProt Q01959, whole entry: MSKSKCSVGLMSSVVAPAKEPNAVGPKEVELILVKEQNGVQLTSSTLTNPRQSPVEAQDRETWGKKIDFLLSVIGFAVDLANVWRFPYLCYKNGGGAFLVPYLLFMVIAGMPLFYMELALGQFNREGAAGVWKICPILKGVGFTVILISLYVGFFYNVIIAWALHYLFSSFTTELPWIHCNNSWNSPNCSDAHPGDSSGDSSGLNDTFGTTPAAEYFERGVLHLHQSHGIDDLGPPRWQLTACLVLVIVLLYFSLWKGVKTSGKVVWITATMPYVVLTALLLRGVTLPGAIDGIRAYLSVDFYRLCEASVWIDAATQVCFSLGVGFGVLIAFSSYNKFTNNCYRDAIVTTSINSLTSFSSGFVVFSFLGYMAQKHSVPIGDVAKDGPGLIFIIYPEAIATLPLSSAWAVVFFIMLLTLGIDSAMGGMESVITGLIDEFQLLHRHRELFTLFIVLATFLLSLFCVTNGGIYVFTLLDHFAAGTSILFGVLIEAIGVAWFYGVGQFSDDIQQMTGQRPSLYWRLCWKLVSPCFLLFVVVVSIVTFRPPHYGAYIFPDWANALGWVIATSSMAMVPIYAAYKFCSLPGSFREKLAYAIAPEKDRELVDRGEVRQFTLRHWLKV
# Target: Sodium-dependent dopamine transporter (Homo sapiens, UniProt Q01959)
# Assay: Displacement of [3H]WIN-35428 from human DAT
# Summary of the method: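 Competitive radioligand binding at human transporters. The tritiated standard ligand matched each transporter: WIN-35,428 for DAT, citalopram for SERT, and nisoxetine for NET. IC50 is the concentration giving 50% inhibition of radioligand binding, reported as mean ± SEM of three independent experiments.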
compound,measurement,value
CN1C2C=C(c3ccccc3-c3ccccc3)CC1CC2 (stereo unspecified),IC50,9.24 µM
